Patent US3998790A, “Phenoxy-hydroxypropylamines, their preparation, and method and pharmaceutical preparations for treating cardiovascular diseases” (priority 1974, dated 1976)

Assay: in vivo
Conditions: mouse, ip
Description: Compounds prepared according to the examples were evaluated for intrinsic activity and blocking effect on heart rate and: peripheral vasodilator response to isoprenaline in the cat. The acute LD50 in mice was evaluated. Alprenolol was used as a reference substance.

C=CCc1ccccc1OCC(O)CNC(C)C (stereo not shown) [alprenolol, reference compound]
LD50: 100 mg/kg
